# Data taken from patent EP3315495A1, “N,N' -[…], N,N' -DIAR[…] N,N' -DIARY[…] FOR USE IN TREATMENT AND PREVENTION OF INFLAMMATORY DISEASE” (Universität Innsbruck, priority 2016, dated 2018).
# System: 5-LOX product formation in PMNL
# Test: 5-LOX product formation in PMNL stimulated with A23187 (cell-based)
# Set-up: species or system human
# Conditions: 60 µM AA, also at higher inhibitor concentrations
# Description: Briefly, first a cell-based assay allows to determine the inhibition of the 5-LOX product biosynthesis. The cell suspension contained human neutrophils (PMNL) or monocytes, wherein the cells were isolated from buffy coats obtained from healthy donors pooled by gender. An aliquot cell suspension was incubated with the candidate compound for 15 min at 37 °C. The cells are treated with calcium ionophore A23187 to stimulate 5-LOX product formation for further 10 min (37 °C), optionally in presence of various concentrations of AA. The reaction was stopped with 1 mL methanol on ice.
# In both assays, product quantification was conducted with RP-HPLC and UV detection after solid phase extraction and addition of 200 ng prostaglandin B1 as internal standard.
compound,measurement,value
"Cc1cc(OCc2nc3ccccc3s2)ccc1NC(=O)Nc1ccc(Cl)c(Cl)c1 [Compound I-12, N-[4-(2-benzothiazolylmethoxy)-2-methylphenyl]-N'-(3,4-dichlorophenyl)-urea]",inhibition of product formation,could not achieve an inhibition of product formation below 50%
